Seven molecules from patent US20220119825A1, “SCALABLE PEPTIDE-GPCR INT[…] SYSTEMS” (THE TRUSTEES OF COLUMBIA UNIVERSITY IN THE CITY OF NEW YORK, priority 2019, published 2022) can be followed below.

This assay relates to Ste2-like fungal mating GPCRs expressed in S. cerevisiae. Kind of assay: GPCR on-off activity and dose response assay (FUS1 promoter coRFP fluorescent reporter, strain JTy014, synthetic peptide ligand). As to conditions: for Hill Slope: Hill slope of 4-parameter fit; for Bttm: bottom of 4-parameter fit of the fluorescence dose response curve (basal activation); for Fold Change: fold-change activation from Top and Bttm of the fit; for EC50: peptide/GPCR pair, synthetic cognate peptide, fluorescence read-out, 4-parameter fit of dose response curves (FIG. 6), values given as negative (log) numbers; for Span: span of 4-parameter fit of the fluorescence dose response curve; for Top: top of 4-parameter fit of the fluorescence dose response curve (maximal activation). Details: EC50: unit: log10 M. In kind it is cell-based, Ascomycete fungi (expressed in S. cerevisiae). The procedure:
GPCR on-off activity and dose response assay. GPCR activity and response to increasing dosage of synthetic peptide ligand was measured in strain JTy014 using the genomically integrated FUS1-promoter controlled coRFP as a fluorescent reporter. JTy014 strains carrying the appropriate GPCR expression plasmid were assayed in 96-well microtiter plates using 200 μl total volume, cultured at 30° C. and 800 RPM. Cells were seeded at an A600 of 0.3 (Note: all herein reported cell density values are based on A600 measurements in 96-well plates of a 200 μl volume of cultures with a path length of ˜0.3 cm performed in an Infinite M200 plate reader from Tecan) in SC media lacking uracil (selective component). All measurements were performed in triplicates. RFP fluorescence (excitation: 588 nm, emission: 620 nm) and culture turbidity (A600) were measured after 8 hours using an Infinite M200 plate reader (Tecan). Since the optical density values were outside the linear range of the photodetector, all optical density values were first corrected using the following formula to give true optical density values: […]
where Ameas is the measured optical density, Asat is the saturation value of the photodetector and k is the true optical density at which the detector reaches half saturation of the measured optical density^36. Dose-response was measured at different concentrations (11 five-fold dilutions in H2O starting at 40 μM peptide, H2O was used as “no peptide” control) of the appropriate synthetic peptide ligand. All fluorescence values were normalized by the A600, and plotted against the log(10)-converted peptide concentrations. Data were fit to a four-parameter non-linear regression model using Prism (GraphPad) in order to extract GPCR-specific values for basal activation, maximal activation, EC50 and the Hill coefficient. Fold-activation was calculated for each GPCR as the maximum A600-normalized fluorescence of peptide-treated cells divided by the A600 normalized fluorescence value of water-treated cells.

In the case of `CSCC[C@H](NC(=O)[C@H](C)NC(=O)[C@@H]1CCCN1C(=O)[C@H](CC(=O)O)NC(=O)CNC(=O)[C@@H]1CCCN1C(=O)[C@H](CCCNC(=N)N)NC(=O)[C@@H]1CCCN1C(=O)[C@@H](NC(=O)[C@H](Cc1ccc(O)cc1)NC(=O)[C@H](Cc1c[nH]c2ccccc12)NC(=O)[C@H](Cc1ccccc1)NC(=O)[C@H](Cc1c[nH]c2ccccc12)NC(=O)CNC(=O)[C@H](Cc1c[nH]c2ccccc12)NC(=O)[C@H](CC(=O)O)NC(=O)CN)C(C)C)C(=O)O` [Gc], the “Hill Slope” value was 1.8, the Bttm is on record as 22.9, the “Fold Change” value worked out at 8.2 and the EC50 is given as −6.9. The same molecule registered a Span of 164.3 and a Top of 187.2.

In the case of `CSCC[C@H](NC(=O)[C@H](CS)NC(=O)[C@@H](N)Cc1c[nH]c2ccccc12)C(=O)N[C@@H](CCCNC(=N)N)C(=O)N1CCC[C@H]1C(=O)NCC(=O)N[C@@H](CCC(N)=O)C(=O)N1CCC[C@H]1C(=O)N[C@@H](CS)C(=O)N[C@@H](Cc1c[nH]c2ccccc12)C(=O)O` [Bb], the “Hill Slope” value amounted to 1.0, the Bttm is on record as 25.2, the “Fold Change” value is on record as 9.7 and the EC50 is given as −8.5. This molecule also had a Span of 218.9 and a Top of 244.1.

In the case of `CC[C@H](C)[C@H](NC(=O)[C@H](Cc1c[nH]c2ccccc12)NC(=O)[C@H](CCCCN)NC(=O)[C@H](Cc1c[nH]c2ccccc12)NC(=O)[C@@H](N)CCCCN)C(=O)N[C@@H](CCCCN)C(=O)N[C@@H](Cc1ccccc1)C(=O)N[C@@H](CCCNC(=N)N)C(=O)N[C@@H](CC(N)=O)C(=O)N[C@H](C(=O)N[C@@H](CC(=O)O)C(=O)N[C@H](C(=O)N[C@H](C(=O)NCC(=O)O)[C@@H](C)CC)C(C)C)[C@@H](C)O` [Cl], the “Hill Slope” value was found to be 0.9, the Bttm is listed as 39.8, the “Fold Change” value is 1.4 and the EC50 is −7.5. The Span was determined as 186.0 and the Top stood at 225.8.

Turning to `CC[C@H](C)[C@H](NC(=O)[C@@H]1CCCN1C(=O)[C@H](CCC(N)=O)NC(=O)[C@H](Cc1ccccc1)NC(=O)[C@H](Cc1ccccc1)NC(=O)[C@H](Cc1c[nH]c2ccccc12)NC(=O)[C@H](Cc1ccc(O)cc1)NC(=O)[C@@H](NC(=O)[C@H](CC(C)C)NC(=O)[C@H](Cc1ccccc1)NC(=O)[C@H](CCCNC(=N)N)NC(=O)[C@H](CO)NC(=O)[C@H](CC(N)=O)NC(=O)[C@H](CCCCN)NC(=O)[C@@H](N)CCCCN)[C@@H](C)O)C(=O)N[C@@H](CCSC)C(=O)O` [Cgu], the “Hill Slope” value is 1.1, the Bttm worked out at 41.2, the “Fold Change” value was determined as 5.1 and the EC50 is −7.4. The Span came out at 170.5 and the Top is recorded as 211.7.

Turning to `N=C(N)NCCC[C@H](NC(=O)CNC(=O)[C@H](CS)NC(=O)[C@@H](N)Cc1c[nH]c2ccccc12)C(=O)N1CCC[C@H]1C(=O)NCC(=O)N[C@@H](CCC(N)=O)C(=O)N1CCC[C@H]1C(=O)N[C@@H](CS)C(=O)O` [Bc], the “Hill Slope” value is reported as 0.7, the Bttm is recorded as 28.6, the “Fold Change” value was determined as 12.3 and the EC50 is −8.1. Further, the Span is on record as 323.3 and the Top is given as 351.9.

On to `CC[C@H](C)[C@H](NC(=O)[C@H](CCCNC(=N)N)NC(=O)[C@H](Cc1ccc(O)cc1)NC(=O)[C@H](CS)NC(=O)[C@@H](N)Cc1c[nH]c2ccccc12)C(=O)NCC(=O)N[C@@H](CCC(=O)O)C(=O)N1CCC[C@H]1C(=O)N[C@@H](CS)C(=O)N[C@@H](Cc1c[nH]c2ccccc12)C(=O)O` [Hj], for which the “Hill Slope” value was found to be 0.6, the Bttm was 53.0, the “Fold Change” value worked out at 8.1 and the EC50 is given as −7.8. The Span worked out at 376.5 and the Top worked out at 429.5.

With `CC(C)C[C@H](NC(=O)[C@H](CCCNC(=N)N)NC(=O)[C@H](Cc1ccccc1)NC(=O)CN)C(=O)N[C@H](C(=O)N[C@@H](CC(N)=O)C(=O)N[C@@H](Cc1ccccc1)C(=O)NCC(=O)N[C@@H](Cc1ccc(O)cc1)C(=O)N[C@@H](Cc1ccccc1)C(=O)N[C@@H](CCC(=O)O)C(=O)N1CCC[C@H]1C(=O)NCC(=O)O)[C@@H](C)O` [Ca], the “Hill Slope” value is listed as 1.0, the Bttm is recorded as 38.9, the “Fold Change” value came to 7.0 and the EC50 is given as −7.7. Moreover, the Span is given as 232.8 and the Top worked out at 271.6.
